We go through one molecule from patent US20170224799A1 (UNIVERSITY OF CONNECTICUT, published 2017).

The chains behind the UniProt entries cited, without tags or fusion partners. Residues count along the entry.
UniProt P01902, 22-305: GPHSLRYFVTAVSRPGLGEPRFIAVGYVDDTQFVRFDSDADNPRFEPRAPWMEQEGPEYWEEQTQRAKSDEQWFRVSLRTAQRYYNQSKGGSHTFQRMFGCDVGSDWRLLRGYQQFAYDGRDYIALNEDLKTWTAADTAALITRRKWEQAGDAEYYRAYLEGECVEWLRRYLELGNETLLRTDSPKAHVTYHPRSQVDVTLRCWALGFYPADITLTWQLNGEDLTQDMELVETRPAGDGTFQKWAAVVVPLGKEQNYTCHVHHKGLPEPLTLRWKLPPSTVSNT

For this assay, the target named is H-2 K^d (mouse, UniProt P01902 22-305). As to the kind of experiment: competition with radiolabeled standard peptide, purified H-2 K^d.

B1: Tnpo3.2 Mut peptide SYMLQALCIPT (peptide)
peptide: SYMLQALCIPT
The molecule B1 registered an IC50 of 9.96 µM.
